Test results reported in ChEMBL document CHEMBL5614410, “Design, Synthesis, and Evaluation of p53Y220C Acetylation Targeting Chimeras (AceTACs)” (J Med Chem, 2024).

Tested on: CREB-binding protein/Histone acetyltransferase p300/Cellular tumor antigen p53 (Homo sapiens), P04637+Q09472+Q92793 [Y220C]
Assay: AceTAC activity at FLAG-tagged p53Y220C mutant (unknown origin) expressed in human NCI-H1299 cells expressing p300/CBP assessed as fold increase in p53 acetylation at lysine 382 residue at 10 uM incubated for 24 hrs by western blot analysis relative to control
Assay type: cell-based
Procedure, shortened: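 NCI-H1299 (p53Y220C) cells were exposed to 1, 3 and 10 μM for 24 h, then Western blotted. The K382ac signal was normalized to total p53Y220C and quantified from two independent experiments (±SD), relative to DMSO.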

Structure (SMILES): CCn1c2ccc(CNCCOCCOCCOCCC(=O)NCCOc3ccc(CCc4nc5cc(-c6c(C)noc6C)ccc5n4CCN4CCOCC4)cc3F)cc2c2ccc(-c3cc(C)cs3)cc21
- fold change (FC): 6
